Data: PMC3921447, “Homologous and heterologous desensitization of guanylyl cyclase-B signaling in GH3 somatolactotropes” (Cell and Tissue Research, 2013)

Legend:
anterior pituitary = conditions: later attributed to contamination with gonadotrophin-releasing hormone (Abou-Samra et al. [1987]); ref Horvath et al. [1986]; cited from earlier work
Excerpt: Nevertheless, several pharmacological studies support a functional role of ANP, acting via GC-A receptors, in the anterior pituitary (McArdle et a ...

GC-A and GC-B receptors = conditions: prolonged exposure; ref Fan et al. [2005]; Dickey et al. [2011]; cited from earlier work
Excerpt: Pharmacological regulation of the GC-B receptor has been elegantly described through many studies by Potter and Hunter ([1998a], [1999]) who have shown that dephosphorylation of specific serine and threonine residues of the GC-B receptor leads to rapid homologous desensitization. In keeping with the extensive literature describing the regulation of GC-A receptors (Potter et al. [2006]), enhancement of protein kinase C (PKC) activity leads to heterologous desensitization (Potter and Hunter [2000]).

GC-A = molecular target: T1, GC-A (Rattus norvegicus, UniProt P18910); assay: ANP-stimulated total cGMP accumulation in GH3 cells, concentration-response; type: cell-based; conditions: 15 min, 1 mM IBMX
T1 construct: Evidence of homologous desensitization of endogenous GC-A- and GC-B-mediated signaling in GH3 cells; endogenous in cells; host or cells: GH3 rat somatolactotrope cells
T1 sequence (P18910 29-1057): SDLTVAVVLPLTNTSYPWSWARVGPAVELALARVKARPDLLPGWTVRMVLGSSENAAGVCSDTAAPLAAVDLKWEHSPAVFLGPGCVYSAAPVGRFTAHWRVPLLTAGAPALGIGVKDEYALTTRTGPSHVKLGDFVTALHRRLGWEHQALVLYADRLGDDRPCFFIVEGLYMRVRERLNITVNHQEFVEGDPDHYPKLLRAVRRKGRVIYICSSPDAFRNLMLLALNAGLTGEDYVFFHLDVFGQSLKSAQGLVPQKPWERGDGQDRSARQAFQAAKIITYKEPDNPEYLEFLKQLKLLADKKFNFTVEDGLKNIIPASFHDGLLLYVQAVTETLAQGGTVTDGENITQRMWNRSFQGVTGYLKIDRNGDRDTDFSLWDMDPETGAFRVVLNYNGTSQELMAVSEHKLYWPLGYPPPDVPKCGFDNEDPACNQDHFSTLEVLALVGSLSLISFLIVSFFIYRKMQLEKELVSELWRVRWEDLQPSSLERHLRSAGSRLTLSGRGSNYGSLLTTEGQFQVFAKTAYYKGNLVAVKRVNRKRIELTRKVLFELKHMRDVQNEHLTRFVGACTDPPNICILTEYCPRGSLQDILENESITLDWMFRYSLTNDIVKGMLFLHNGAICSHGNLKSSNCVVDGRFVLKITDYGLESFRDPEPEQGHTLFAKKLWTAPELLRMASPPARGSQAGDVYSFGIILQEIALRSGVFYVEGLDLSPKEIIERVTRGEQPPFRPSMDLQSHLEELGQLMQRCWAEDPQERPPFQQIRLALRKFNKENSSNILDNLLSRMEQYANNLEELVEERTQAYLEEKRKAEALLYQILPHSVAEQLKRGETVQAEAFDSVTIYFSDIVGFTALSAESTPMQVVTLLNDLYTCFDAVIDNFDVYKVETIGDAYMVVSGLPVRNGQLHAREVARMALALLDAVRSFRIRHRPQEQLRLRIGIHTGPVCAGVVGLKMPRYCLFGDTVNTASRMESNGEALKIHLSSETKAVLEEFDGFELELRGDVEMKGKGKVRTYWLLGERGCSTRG

SMILES: CC[C@H](C)[C@@H]1NC(=O)[C@H](CCCNC(=N)N)NC(=O)[C@H](CC(=O)O)NC(=O)[C@H]([C@@H](C)CC)NC(=O)[C@H](CCCNC(=N)N)NC(=O)CNC(=O)CNC(=O)[C@H](Cc2ccccc2)NC(=O)[C@@H](NC(=O)[C@H](CO)NC(=O)[C@H](CO)NC(=O)[C@H](CCCNC(=N)N)NC(=O)[C@H](CCCNC(=N)N)NC(=O)[C@H](CC(C)C)NC(=O)[C@@H](N)CO)CSSC[C@@H](C(=O)N[C@@H](CC(N)=O)C(=O)N[C@@H](CO)C(=O)N[C@@H](Cc2ccccc2)C(=O)N[C@@H](CCCNC(=N)N)C(=O)N[C@@H](Cc2ccc(O)cc2)C(=O)O)NC(=O)CNC(=O)[C@H](CC(C)C)NC(=O)CNC(=O)[C@H](CO)NC(=O)[C@H](CCC(N)=O)NC(=O)[C@H](C)NC(=O)CNC1=O [ANP, atrial natriuretic peptide]
- gonadotropin secretion (anterior pituitary): reported to act as a gonadotropin secretagog
- agonist-induced internalization (GC-A and GC-B receptors): does not appear to cause agonist-induced internalization
- maximal cGMP response relative to CNP (GC-A): almost twice that of CNP
